Assay results as given in patent publication US10988477B2 (Merck Patent GmbH, priority 2018, dated 2021).
pIC50, pKi: −log10 of the molar value.

Amino acid sequences for entries named in this document (tags omitted).
UniProt Q9P2K8, whole entry: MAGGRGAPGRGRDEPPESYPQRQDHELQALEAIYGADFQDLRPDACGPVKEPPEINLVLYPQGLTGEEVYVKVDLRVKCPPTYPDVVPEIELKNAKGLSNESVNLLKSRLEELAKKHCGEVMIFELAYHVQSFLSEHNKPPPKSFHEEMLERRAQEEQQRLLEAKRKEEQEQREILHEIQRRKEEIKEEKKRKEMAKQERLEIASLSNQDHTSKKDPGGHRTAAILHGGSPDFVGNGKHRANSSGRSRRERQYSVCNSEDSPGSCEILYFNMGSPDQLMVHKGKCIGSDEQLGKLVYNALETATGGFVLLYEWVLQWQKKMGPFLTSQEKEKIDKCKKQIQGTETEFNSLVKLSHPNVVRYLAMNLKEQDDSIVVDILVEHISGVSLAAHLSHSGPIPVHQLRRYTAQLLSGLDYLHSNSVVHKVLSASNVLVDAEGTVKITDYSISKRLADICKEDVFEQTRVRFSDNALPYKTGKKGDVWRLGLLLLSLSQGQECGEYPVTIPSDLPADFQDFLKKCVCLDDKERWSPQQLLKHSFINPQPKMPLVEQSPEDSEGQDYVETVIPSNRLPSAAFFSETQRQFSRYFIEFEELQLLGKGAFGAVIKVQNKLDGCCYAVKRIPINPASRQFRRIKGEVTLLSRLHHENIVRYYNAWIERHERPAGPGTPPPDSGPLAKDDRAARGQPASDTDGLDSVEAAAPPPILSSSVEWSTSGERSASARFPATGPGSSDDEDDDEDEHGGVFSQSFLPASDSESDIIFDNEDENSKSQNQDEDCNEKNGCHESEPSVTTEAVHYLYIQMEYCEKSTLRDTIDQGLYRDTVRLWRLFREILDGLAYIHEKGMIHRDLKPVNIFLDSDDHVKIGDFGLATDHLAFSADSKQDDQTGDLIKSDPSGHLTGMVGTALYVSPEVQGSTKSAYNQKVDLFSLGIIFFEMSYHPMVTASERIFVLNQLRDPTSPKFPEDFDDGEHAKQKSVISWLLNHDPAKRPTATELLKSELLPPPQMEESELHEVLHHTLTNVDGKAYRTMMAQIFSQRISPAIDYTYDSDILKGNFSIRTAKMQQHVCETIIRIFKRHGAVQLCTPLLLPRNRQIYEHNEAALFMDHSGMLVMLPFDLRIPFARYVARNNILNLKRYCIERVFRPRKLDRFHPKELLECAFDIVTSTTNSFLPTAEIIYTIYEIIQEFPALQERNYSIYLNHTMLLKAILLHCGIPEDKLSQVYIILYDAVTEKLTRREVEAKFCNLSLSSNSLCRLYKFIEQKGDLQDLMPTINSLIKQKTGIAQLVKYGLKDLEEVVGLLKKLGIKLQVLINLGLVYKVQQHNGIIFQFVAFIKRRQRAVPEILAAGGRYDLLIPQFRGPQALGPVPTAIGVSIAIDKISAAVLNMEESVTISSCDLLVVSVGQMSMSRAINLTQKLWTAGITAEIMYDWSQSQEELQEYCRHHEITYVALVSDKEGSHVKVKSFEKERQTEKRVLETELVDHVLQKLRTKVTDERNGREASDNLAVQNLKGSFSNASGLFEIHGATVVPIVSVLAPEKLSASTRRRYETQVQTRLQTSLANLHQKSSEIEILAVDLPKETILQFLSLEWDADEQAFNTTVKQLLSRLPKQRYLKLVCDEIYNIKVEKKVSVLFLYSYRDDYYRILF

Legend:
GCN2 kinase = GCN2 kinase (Homo sapiens, UniProt Q9P2K8); test: GCN2 enzyme inhibition assay (Transcreener ADP2 fluorescence polarization); settings: read-out: GCN2 (Ki); compounds of Formula II; 280 μM ATP, 4 nM GCN2 kinase
Protocol: Compounds were screened for their ability to inhibit GCN2 kinase activity using a Transcreener® ADP^2 fluorescence polarization assay that detects ADP levels (BellBrook Labs, WI). Assays were carried out in a buffer consisting of 25 mM Tris-HCl (pH 7.5), 50 mM NaCl, 10 mM MgCl2 and 1 mM DTT. Final substrate concentrations were 280 μM ATP and 200 μM peptidic substrate (H-[…]OH [(RS)7], Bachem, Switzerland). Assays were carried out at 25° C. in the presence of a (typical) final concentration of 4 nM GCN2 kinase.
An assay buffer containing GCN2 kinase and (RS)7 was prepared. 4.7 μL of this stock solution was placed per well of a black, low volume, 384-well microtitre plate (e.g. catalogue number 3676, Corning Inc., NY). […] The reaction was left to incubate for 1 hour at 25° C., prior to measuring the fluorescence polarisation signal (mP) in each well using a PHERAstar FS reader (BMG Labtech, Germany).
Fluorescence polarization values were normalized to an in plate standard curve consisting of various ratios of ATP to ADP in assay buffer to a final total concentration of 280 μM. […] Percentage inhibition of enzyme activity was then calculated at each compound dose. IC50 and Ki(app) (using known assay and kinetic parameters) values were calculated from percentage inhibition data using a non-linear, tight-binding algorithm. […]

[1] = target: intracellular GCN2 (phosphorylation of the GCN2 substrate eIF2α) (Homo sapiens, UniProt Q9P2K8); test: GCN2 cellular inhibition assay (AlphaScreen SureFire P-eIF2α Ser51, borrelidin-treated U2OS cells); settings: read-out: GCN2 Biomarker (IC50), compounds of Formula II, phosphorylated eIF2α Ser51 in borrelidin-treated U2OS cells
Protocol: Compounds can be screened for their ability to inhibit intracellular GCN2 using an AlphaScreen assay (Perkin Elmer) to detect phosphorylation of the GCN2 substrate eIF2α in borrelidin-treated cells. U2OS cells are plated at 5,000 cells per well in 384-well white polystyrene plates (Corning 3570) in McCoy's 5 A media (GIBCO 26600-023) supplemented with 10% foetal bovine serum (SAFC 12103C), Penicillin/Streptomycin solution diluted 1:100 (Sigma P0781), and 2 mM L-glutamine (Sigma G7513), and allowed to adhere overnight at 37° C. in 5% CO2. Compounds are then added to the cell media from a final concentration of 40 μM in 4-fold serial dilutions. Borrelidin (FluoroChem M01440) is immediately added to the wells to a final concentration of 10 μM and the cells are incubated for 1 h at 37° C. in 5% CO2. After 1 h of treatment with borrelidin, the media is removed, and the cells are lysed with lysis buffer (TGR BioSciences TGRLB) at ambient temperature.
An AlphaScreen SureFire P-eIF2α (Ser51) assay kit (Perkin Elmer TGREIF2S) was used to measure levels of eIF2α phosphorylated on Serine 51. […]
Plates are analyzed on an Alpha Technology-compatible PHERAstar FS plate reader (BMG Labtech Version 1.14) to quantify phosphorylated eIF2α Ser51 levels. The percentage inhibition of phosphorylated eIF2α is calculated by comparison to control wells stimulated with borrelidin alone.

Q: How did the pKi (GCN2 kinase) turn out when `CS(=O)(=O)NCC1CN(c2cc(-c3cnc4ccc(C(F)F)nn34)cc[n+]2[O-])CCC1(F)F` (centres unmarked) was run?
A: The pKi was over 8.00.

Q: What about the pIC50 [1] of the same molecule?
A: Its pIC50 is 5.30 to 6.30.
